From patent US10947254B2, “Methods for treating ulcerative colitis using 3-((1R,3s,5S)-3-((7-((5-methyl-1H-pyrazol-3-yl)amino)-1,6-naphthyridin-5-yl)amino)-8-azabicyclo[3.2.1]octan-8-yl)propanenitrile” (priority 2015, dated 2021)

The chains behind the UniProt entries cited, without tags or fusion partners. Where a name states a change or a piece, a line headed by the entry shows the natural chain unless it says otherwise.
UniProt P52333: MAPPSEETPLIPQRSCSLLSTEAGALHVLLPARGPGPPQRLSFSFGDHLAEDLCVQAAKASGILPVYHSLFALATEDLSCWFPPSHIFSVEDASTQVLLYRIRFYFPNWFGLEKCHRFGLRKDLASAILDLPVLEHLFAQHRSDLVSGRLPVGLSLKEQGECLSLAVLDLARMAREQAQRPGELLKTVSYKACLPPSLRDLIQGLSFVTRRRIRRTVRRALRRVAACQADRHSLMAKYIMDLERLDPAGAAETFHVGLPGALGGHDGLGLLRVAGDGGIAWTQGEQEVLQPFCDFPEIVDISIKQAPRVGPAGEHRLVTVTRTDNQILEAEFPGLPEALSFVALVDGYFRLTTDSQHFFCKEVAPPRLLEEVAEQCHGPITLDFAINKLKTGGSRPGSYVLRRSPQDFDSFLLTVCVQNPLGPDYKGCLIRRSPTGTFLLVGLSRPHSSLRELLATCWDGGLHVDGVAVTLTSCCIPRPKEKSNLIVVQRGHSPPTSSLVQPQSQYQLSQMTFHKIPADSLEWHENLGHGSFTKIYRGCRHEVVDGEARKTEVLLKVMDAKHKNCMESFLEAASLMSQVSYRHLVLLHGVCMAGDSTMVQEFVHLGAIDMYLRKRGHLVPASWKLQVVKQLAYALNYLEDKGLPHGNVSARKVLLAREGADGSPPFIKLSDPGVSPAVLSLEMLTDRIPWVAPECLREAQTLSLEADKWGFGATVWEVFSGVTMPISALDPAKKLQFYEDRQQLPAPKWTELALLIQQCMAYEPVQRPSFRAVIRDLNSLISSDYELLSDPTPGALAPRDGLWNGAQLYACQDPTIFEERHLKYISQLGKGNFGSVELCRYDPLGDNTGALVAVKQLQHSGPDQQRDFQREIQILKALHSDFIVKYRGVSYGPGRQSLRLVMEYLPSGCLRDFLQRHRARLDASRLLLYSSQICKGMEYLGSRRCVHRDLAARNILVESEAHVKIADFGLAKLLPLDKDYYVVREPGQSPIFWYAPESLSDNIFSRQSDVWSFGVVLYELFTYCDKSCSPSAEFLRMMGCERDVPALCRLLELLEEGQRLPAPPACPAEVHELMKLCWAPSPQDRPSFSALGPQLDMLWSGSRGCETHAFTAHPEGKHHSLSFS

Molecular target: JAK3 (Homo sapiens (Human), UniProt P52333)
Assay: Biochemical JAK assay (LanthaScreen), JAK3
Protocol: Assay 1: Biochemical JAK and Off-Target Kinase Assays
A panel of four LanthaScreen JAK biochemical assays (JAK1, 2, 3 and Tyk2) were carried in a common kinase reaction buffer (50 mM HEPES, pH 7.5, 0.01% Brij-35, 10 mM MgCl2, and 1 mM EGTA). Recombinant GST-tagged JAK enzymes and a GFP-tagged STAT1 peptide substrate were obtained from Life Technologies.
Serially diluted compounds were pre-incubated with each of the four JAK enzymes and the substrate in white 384-well microplates (Corning) at ambient temperature for 1 h. ATP was subsequently added to initiate the kinase reactions in 10 μL total volume, with 1% DMSO. […] The plates were allowed to incubate at ambient temperature for 1 h before being read on the EnVision reader (Perkin Elmer).
Results were expressed as pIC50 (negative logarithm of IC50) and subsequently converted to pKi (negative logarithm of dissociation constant, Ki) using the Cheng-Prusoff equation.

Compound | JAK 3 (pKi)
Cc1cc(Nc2cc3ncccc3c(N[C@@H]3C[C@H]4CC[C@@H](C3)N4C(=O)C3(C#N)CC3)n2)n[nH]1 [Example 2-8] | C (C represents a pKi value between 7 and 9 (Ki between 100 nM and 1 nM))
Cc1cc(Nc2cc3ncccc3c(N[C@@H]3C[C@H]4CCC[C@@H](C3)N4C(=O)C3(C#N)CC3)n2)n[nH]1 [Example 2-20] | C (C represents a pKi value between 7 and 9 (Ki between 100 nM and 1 nM))
